Three compounds from ChEMBL document CHEMBL4808217, “Design, Synthesis, and Characterization of 4-Aminoquinazolines as Potent Inhibitors of the G Protein-Coupled Receptor Kinase 6 (GRK6) for the Treatment of Multiple Myeloma” (J Med Chem, 2021) can be followed below.

By UniProt entry, the sequences of proteins in these tests, tags left out.
UniProt P43250, whole entry, looked up: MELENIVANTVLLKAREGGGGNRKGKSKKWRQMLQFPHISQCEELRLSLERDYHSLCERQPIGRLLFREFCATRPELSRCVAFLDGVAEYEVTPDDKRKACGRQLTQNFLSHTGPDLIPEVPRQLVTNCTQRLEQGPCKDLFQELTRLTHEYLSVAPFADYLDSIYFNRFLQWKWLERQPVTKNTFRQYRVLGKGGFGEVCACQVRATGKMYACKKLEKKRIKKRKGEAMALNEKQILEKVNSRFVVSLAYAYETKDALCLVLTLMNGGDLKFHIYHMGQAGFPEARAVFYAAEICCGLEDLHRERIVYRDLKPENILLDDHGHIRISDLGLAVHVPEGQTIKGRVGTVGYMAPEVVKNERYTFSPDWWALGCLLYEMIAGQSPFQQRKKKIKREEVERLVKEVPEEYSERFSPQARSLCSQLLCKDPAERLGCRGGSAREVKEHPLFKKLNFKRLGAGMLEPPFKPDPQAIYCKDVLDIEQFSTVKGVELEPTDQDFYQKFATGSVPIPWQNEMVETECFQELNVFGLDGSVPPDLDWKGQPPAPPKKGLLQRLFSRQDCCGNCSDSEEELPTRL

The target of the test is G protein-coupled receptor kinase 6 (Homo sapiens, UniProt P43250). Conditions: KMS-11, dose 5.0 µM, time 2.5 hrs.

Consider `CCc1cc(Nc2nc(N[C@@H](C)c3ccc(F)cn3)nc3cccc(C)c23)n[nH]1`, for which the T1/2 was less than 1 h.

The compound `CCc1cc(Nc2nc(NCc3ccc(Cl)cc3OC)nc3cccc(C)c23)n[nH]1` had a T1/2 of 2 h.

In turn, `CCc1cc(Nc2nc(NCc3ccc(Cl)cc3OC)nc3cccc(OC)c23)n[nH]1` registered a T1/2 of 25 h.
